Measured values published in PubChem BioAssay AID736 (The Scripps Research Institute Molecular Screening Center, 2007).
The list shows a part of the results, in another mix than the full data. Calls of active or inactive are those of the source. No stated cut-off is given here; in the data, active means inhibition above about 45%; inactive means the rest.

By UniProt entry, the sequences of proteins in these tests, tags left out.
UniProt O95136, whole entry: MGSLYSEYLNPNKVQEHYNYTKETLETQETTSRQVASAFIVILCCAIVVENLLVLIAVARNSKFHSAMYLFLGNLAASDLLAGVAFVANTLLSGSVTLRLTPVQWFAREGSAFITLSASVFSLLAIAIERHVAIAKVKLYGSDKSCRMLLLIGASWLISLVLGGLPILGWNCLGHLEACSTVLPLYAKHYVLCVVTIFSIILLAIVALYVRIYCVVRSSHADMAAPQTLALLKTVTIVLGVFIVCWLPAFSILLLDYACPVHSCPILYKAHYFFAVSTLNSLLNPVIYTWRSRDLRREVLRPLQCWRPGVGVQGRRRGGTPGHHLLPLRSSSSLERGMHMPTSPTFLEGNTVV

target: Sphingosine 1-phosphate receptor 2 (Homo sapiens) (UniProt O95136); experiment: blockers of S1P2 receptor signalling – cell-based, primary screen (AID 736); conditions: cell-based S1P2 antagonist assay, at 5 µM, stronger effect = higher value;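 further: CRE beta-lactamase reporter cells expressing human S1P2 stimulated with S1P; 0% = agonist at EC80 alone and 100% = agonist plus reference antagonist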

Compound	inhibition
O=C(NCC1(N2CCOCC2)CCCCC1)c1cc(=O)[nH]c2ccccc12	inactive: 11.5%
N#CC1(Nc2ccccc2)CCN(CCc2ccccc2)CC1	inactive: 15.8%
CN1CCC(Nc2cccc(F)c2)CC1	inactive: 20.1%
O=C(OC1CN2CCC1CC2)C1c2ccccc2Oc2ccccc21 (stereo not given)	inactive: 11.2%
O=C(NCC1(N2CCOCC2)CCCCC1)c1cc2ccccc2o1	inactive: 9.92%
COc1ccc(NC2CCN(CCc3ccccc3)CC2)c(OC)c1	inactive: 7.84%
CCC(CO)(C(=O)OC1CN2CCC1CC2)c1ccccc1 (stereo not given)	inactive: 12%
CCOc1ncccc1C(=O)NCC1(N2CCOCC2)CCCCC1	inactive: -34.4%
N/C(=N\O)c1c(N)no[n+]1[O-]	inactive: 10.4%
c1ccc(CN2CCC(Nc3ccccc3)CC2)cc1	inactive: 17.7%
